Laboratory results from US20210046063A1, “NOVEL COMBINATION OF CRIZOTINIB WITH CHLOROQUINE FOR INHIBITION OF DIVERSE LUNG TUMORS” (University of Kentucky Research Foundation, priority 2019, published 2021).

Test system: lung cancer cell lines (A549/EML4-ALK, A549, A549TR, H1299, KP-7B)
Test: Apoptosis of lung cancer cells (ICC for active caspase-3, scored by confocal microscopy)
Assay type: cell-based
Settings: 24 h

C[C@@H](Oc1cc(-c2cnn(C3CCNCC3)c2)cnc1N)c1c(Cl)ccc(F)c1Cl [CZT, Crizotinib]
apoptosis (active caspase-3 positive cells), CZT together with recombinant Par-4 (CZT (1 μM) + recombinant Par-4 (100 nM), A549/EML4-ALK, A549, A549TR, H1299, KP-7B cells, FIG. 1A): sensitizes lung cancer cells to apoptosis by Par-4 | apoptosis, CQ in conjunction with CZT added directly to cancer cells (combination of CZT (1 μM) and CQ (25 nM), P>0.05, FIG. 1C): does not sensitize them to apoptosis by CQ
